# Biological target: Tubulin (Bos taurus, UniProt Q6B856+Q862L2+Q862F3)
# Sequences of proteins named here, by UniProt entry; tags and fusion partners are left off. A change or cut given only in a name is not applied to a line headed by its entry.
# UniProt Q6B856: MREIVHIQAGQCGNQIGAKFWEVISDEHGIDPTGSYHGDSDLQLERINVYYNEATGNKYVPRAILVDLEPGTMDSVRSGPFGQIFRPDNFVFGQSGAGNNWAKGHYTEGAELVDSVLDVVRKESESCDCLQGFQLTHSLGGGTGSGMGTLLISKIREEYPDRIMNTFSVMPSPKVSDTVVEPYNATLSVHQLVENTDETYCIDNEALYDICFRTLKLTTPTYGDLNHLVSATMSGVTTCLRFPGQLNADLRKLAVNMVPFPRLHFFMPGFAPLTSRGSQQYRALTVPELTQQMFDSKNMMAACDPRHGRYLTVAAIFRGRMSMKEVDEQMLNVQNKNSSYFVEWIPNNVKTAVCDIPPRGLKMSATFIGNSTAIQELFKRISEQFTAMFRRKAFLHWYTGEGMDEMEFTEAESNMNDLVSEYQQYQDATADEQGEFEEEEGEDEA
# Assay: Drug concentration needed to produce a 50% reduction of bovine brain tubulin polymerization relative to the control
# Outline: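 Bovine brain tubulin, purified in MEM buffer (1 mM EGTA, 1 mM MgSO4, 5 mM NaH2PO4, 0.02% NaN3, pH 6.75) through one polymerization–depolymerization cycle and stored at -80 °C. Tubulin (200 µg protein) was polymerized in MEM buffer with 1 mM GTP for 15 min at 37 °C. Assembly was followed as turbidity at 350 nm in a temperature-controlled spectrophotometer.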
smiles,measurement,value
COc1cc([C@@H]2c3cc4c(cc3[C@@H](O[C@@H]3O[C@@H]5CO[C@@H](C)O[C@H]5[C@H](O)[C@H]3O)[C@H]3COC(=O)[C@H]23)OCO4)cc(OC)c1O [ETOPOSIDE],IC50,> 60 µM
